Reference: PMC4610628 (Immunology, 2015)

Target: T1, signalling lymphocyte activation molecule-associated protein (SAP), full length, recombinant human (human, UniProt O60880 1-128)
T1 construct: SAP (SH2D1A), human, full length recombinant protein; called 'soluble monomeric recombinant human SAP' in the results; also called SH2D1A; source: recombinant, produced in-house and purified on the day of the experiment
T1 sequence (looked up): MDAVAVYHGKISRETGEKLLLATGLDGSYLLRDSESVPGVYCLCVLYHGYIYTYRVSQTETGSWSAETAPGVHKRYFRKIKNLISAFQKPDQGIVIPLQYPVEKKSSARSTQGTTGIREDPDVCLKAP
Assay: SPR; BIAcore 3000; biotinylated phosphopeptides immobilised on a streptavidin-coated CM5 chip (~30 RU), purified recombinant protein passed over; 37°; 10 mM HEPES pH 7·4, 150 mM KCl, 10 mM EDTA, 0·005% Tween 20; equilibrium data, one-site binding curve
Details: both partners purified

B1: CD244-ITSM2 phosphopeptide (peptide)
peptide: GGSTIYSMIQS
modifications: phosphotyrosine (pY, sixth residue of the peptide); biotin at the N-terminus
notes: CD244 (2B4, SLAMF4), human, ITSM2; source: synthetic peptide; bought: Peptide Protein Research Ltd
In the case of B1, the Kd is reported as 90 nM.
